Data published in BindingDB's records for doi:10.1021/jm00041a005 (Agouron Pharmaceuticals, 1994).

Target: T1, Dimer of Gag-Pol polyprotein [489-587] (Human immunodeficiency virus 1, UniProt P12497)
T1 construct: 489-587
Assay: Protease Inhibition Assay
Conditions: pH 5.5; 37 °C
Protocol: Protease activity was measured by continuous chromogenic assay. The chromogenic peptide His-Lys-Ala-Arg-Val-Leu- (p-NO2-Phe)-Glu-Ala-Nleu-Ser (Bachem) was used as a substrate. Reactions were followed by the decrease of absorbance at 300 nm measured by spectrophotometer. Experimental results were analyzed by the nonlinear regression analysis, using a mathematical model for tight binding inhibitors.

## C[C@H](N)C(=O)N[C@@H](C)C(=O)N[C@@H](Cc1ccccc1)[C@@H](O)CCC(=O)NC(c1ccccc1)c1ccccc1 [5-(L-Alanyl-L-alanylamino)-4-hydroxy-6-phenylhexanoic Acid Benzhydrylamide]
  Ki: 1670 nM
